{"source": "patent US20180002699", "key": {"NF-kB p65 (RelA), Q04206": {"molecular_target": "T1, NF-kB p65 (RelA), Q04206", "T1 chain": "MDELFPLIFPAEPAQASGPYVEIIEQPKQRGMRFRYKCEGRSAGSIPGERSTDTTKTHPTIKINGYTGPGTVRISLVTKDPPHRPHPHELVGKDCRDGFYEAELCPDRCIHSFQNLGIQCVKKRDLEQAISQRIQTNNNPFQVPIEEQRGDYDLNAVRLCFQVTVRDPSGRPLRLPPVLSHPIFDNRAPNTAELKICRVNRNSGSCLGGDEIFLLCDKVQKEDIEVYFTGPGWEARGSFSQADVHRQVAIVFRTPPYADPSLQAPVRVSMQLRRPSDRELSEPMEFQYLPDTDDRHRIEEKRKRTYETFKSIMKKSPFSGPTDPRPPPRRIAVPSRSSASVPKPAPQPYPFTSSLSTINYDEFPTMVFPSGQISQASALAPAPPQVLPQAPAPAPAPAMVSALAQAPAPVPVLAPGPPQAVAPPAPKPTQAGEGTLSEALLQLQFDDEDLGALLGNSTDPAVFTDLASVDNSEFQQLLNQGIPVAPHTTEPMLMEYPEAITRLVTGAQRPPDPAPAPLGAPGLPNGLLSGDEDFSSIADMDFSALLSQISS"}, "[1]": {"molecular_target": "histone H3 (histones isolated from HEK293T cells)"}, "[2]": {"molecular_target": "histone H4 (purified human histones isolated from HEK293T cells)"}, "[3]": {"molecular_target": "recombinant human full-length histone H4"}, "[4]": {"molecular_target": "synthetic histone H4 peptide aa 1-21"}, "[5]": {"molecular_target": "T2, synthetic histone H4 peptide aa 15-24", "T2 chain": "GAKRHRKVLR"}}, "data": [{"protein": "recombinant SMYD2 (SET and MYND domain containing-2 histone methyltransferase), wild type (protein) MRAEGLGGLERFCSPGKGRGLRALQPFQVGDLLFSCPAYAYVLTVNERGNHCEYCFTRKEGLSKCGRCKQAFYCNVECQKEDWPMHKLECSPMVVFGENWNPSETVRLTARILAKQKIHPERTPSEKLLAVKEFESHLDKLDNEKKDLIQSDIAALHHFYSKHLGFPDNDSLVVLFAQVNCNGFTIEDEELSHLGSAIFPDVALMNHSCCPNVIVTYKGTLAEVRAVQEIKPGEEVFTSYIDLLYPTEDRNDRLRDSYFFTCECQECTTKDKDKAKVEIRKLSDPPKAEAIRDMVRYARNVIEEFRRAKHYKSPSELLEICELSQEKMSSVFEDSNVYMLHMMYQAMGVCLYMQDWEGALQYGQKIIKPYSKHYPLYSLNVASMWLKLGRLYMGLEHKAAGEKALKKAIAIMEVAHGKDHPYISEIKQEIESH", "values": [{"measurement": "in vitro methylation (3H-SAM, autoradiography)", "setting": "NF-kB p65 (RelA), Q04206", "value": "but not other putative substrates such as p65 and Sp1"}, {"measurement": "in vitro methylation (3H-SAM, autoradiography)", "setting": "Sp1, P08047", "value": "but not other putative substrates such as p65 and Sp1"}, {"measurement": "in vitro methylation (3H-SAM, autoradiography)", "setting": "[1]", "value": "SMYD2 also methylated histone H3 and p53, known substrates of SMYD2"}, {"measurement": "in vitro methylation of purified human histones (radio-labeled SAM)", "setting": "[2]", "value": "Histone H4 was prominently methylated by SMYD2"}, {"measurement": "in vitro methylation (3H-SAM, autoradiography)", "setting": "p53", "value": "SMYD2 also methylated histone H3 and p53, known substrates of SMYD2"}, {"measurement": "in vitro methylation of recombinant human histone H4", "setting": "[3]", "value": "avidly methylated by SMYD2, a process inhibited by AZ391"}, {"measurement": "in vitro methylation of synthetic histone H4 peptides", "setting": "[4]", "value": "Both peptides were efficiently methylated by SMYD2, a process suppressed by the addition of AZ391"}, {"measurement": "in vitro methylation of synthetic histone H4 peptides", "setting": "[5]", "value": "Both peptides were efficiently methylated by SMYD2, a process suppressed by the addition of AZ391"}]}]}
